Antibody variant affinities, Ab-14 light chain, assay 1

Data: MIT Lincoln Laboratory AlphaSeq set, Engelhart et al. 2022, doi:10.1038/s41597-022-01779-4, as distributed in FLAb.

All variants were tested on one target, the spike HR2 peptide PDVDLGDISGINAS (SARS-CoV-2).

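The parent was found by panning a naive human phage display library on the peptide. Variants in AAYL50 differ from the parent at up to three CDR positions; double and triple changes were sampled at random. Affinity was read by AlphaSeq, a pooled yeast mating assay with surface-displayed partners. After mating in shaken culture at 30 °C for 16 h, diploids were selected and their barcode pairs sequenced. A regression on co-assayed BCL2-family reference pairs converts the normalised counts of each replicate to an apparent Kd. Mating was done three times.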

Parent: Ab-14, a human scFv built as VH, the linker GGGGSGGGGSGGGGS, VL. Only the CDRs of the light chain vary.
VH: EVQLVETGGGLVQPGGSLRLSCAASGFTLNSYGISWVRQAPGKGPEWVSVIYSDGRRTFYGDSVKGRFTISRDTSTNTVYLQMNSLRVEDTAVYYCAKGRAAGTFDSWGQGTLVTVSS
VL: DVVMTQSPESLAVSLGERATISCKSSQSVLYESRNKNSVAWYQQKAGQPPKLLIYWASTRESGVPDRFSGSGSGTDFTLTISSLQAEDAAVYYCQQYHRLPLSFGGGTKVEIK

The parent's light chain CDRs are KSSQSVLYESRNKNSVA, WASTRES, QQYHRLPLS; each variant's own CDRs replace them letter for letter. Kd is apparent (estimated from mating counts) and averaged on the log scale over replicates with a signal. Smaller is tighter. "no signal" means that the variant was in the library but no mating with the target was seen in any replicate; the authors take this as a sign of poor binding, and no number exists. For reference, the parent read 4.4 nM as the reference entry and 48 nM as a member of this library. Three control strains display no target. For library AAYL50, 18% of the pairings with them gave a signal, with a median of 15 µM and one signal in twenty below 970 nM, so weak values seen in few replicates may be background.

CDR-L1 | CDR-L2 | CDR-L3 | Kd (apparent) | detected
KSSQSVLYESRNKNSVA | WASTREN | QPYHRLELS | no signal | 0/3
KSSQSVLFESRNQNSVA | WASMRES | QQYHRLPLS | 8.8 nM | 3/3
FSSQSVLYESRNLNSVA | WASQRES | QQYHRLPLS | no signal | 0/3
KCSQSVLYESVHKNSVA | WASTRES | QQYHRLPLS | 26 nM | 3/3
KSSQSVLQESVNKNSVA | WASTRES | QQYHTLPLS | 3.6 nM | 3/3
KSSQSYLYESRNKNSVA | WASTRES | QQYHRLPMS | 6.8 nM | 3/3
KSSLSVLYESRNKNSVA | WPSTRES | QQYHRLPLS | 9.3 µM | 2/3
KSSRSVLYESRNSNSVA | WASTREF | QQYHRLPLS | 120 nM | 3/3
KSFQSVLYESRNKNRVA | WASTFES | QQYHRLPLS | no signal | 0/3
KSSQSVLSESRNKNSTA | WASTREY | QQYHRLPLS | no signal | 0/3
KSSQSVLYESRNKNSQA | WASCRES | QQYHRLWLS | no signal | 0/3
KSSQSVLYESRNKNSVA | WASTRIS | QQYARLPLS | 40 nM | 3/3
KSSQSVLYESRNSNSVA | WASTRES | QQYHYLILS | 2.1 nM | 3/3
KFSQSVLYISRNKNSVA | WASTRES | SQYHRLPLS | 35 nM | 3/3
KISQSVTYESRNKNSVA | WASTRES | RQYHRLPLS | 480 nM | 3/3
KSLQSVLYESRNKNSVA | WCSTRGS | QQYHRLPLS | 3.8 µM | 1/3
KSSQSVLYESRNKNQVA | WASTRES | QFYHRLPLV | no signal | 0/3
KSSMSVLYESRNKNSVA | WAETRES | QFYHRLPLS | 37 nM | 3/3
KSYQSVLYESRNKNSVA | WHSTRLS | QQYHRLPLS | no signal | 0/3
KSSQSVLYESRNKNSVA | WASTREE | TQYHTLPLS | 18 µM | 1/3
KSSQSVLYESRDKNSVA | WASDRIS | QQYHRLPLS | 29 nM | 3/3
VSSQSVLFESRNKNSVA | TASTRES | QQYHRLPLS | 11 nM | 3/3
KSTQSVLYESRNCNSVA | WASTRES | QQYHRVPLS | no signal | 0/3
KSSQLVFYESRNKNSVA | WASTRES | QQYHRLDLS | 500 nM | 3/3
KSSQSVLYESINKNSVA | WASTWES | QQYHRLPLS | 140 µM | 2/3
KSSQSVLYESRNKNPVG | WASTRES | TQYHRLPLS | no signal | 0/3
KSSQSVLYESRNYNSVA | WASTRES | QRYHRLALS | 6.8 nM | 3/3
KSSQSVLDESRNKNSVA | WASTRGS | QQYHRLPES | 5.8 nM | 3/3
KSSQDVLYESRNKNSVA | WAATCES | QQYHRLPLS | no signal | 0/3
KSSQSVLYQSRNDNSVA | WASHRES | QQYHRLPLS | 3.8 nM | 3/3
KSSQSVLYESRNKNSVA | WASTLES | QQYHTLPLS | no signal | 0/3
KSSQSVLYESRNKNSVA | WVSPRES | QEYHRLPLS | no signal | 0/3
KSSQSVLYESRQKNSQA | WASTRES | RQYHRLPLS | no signal | 0/3
KSSQSVLYESRNKNVVA | WKSTREF | QQYHRLPLS | no signal | 0/3
KSSQIVLYESRNKNSVA | WASTRES | QQYHRLKLS | 680 nM | 3/3
KSSQSNLYESMNKNSVA | WASTTES | QQYHRLPLS | no signal | 0/3
KSSQSVLYEHPNKNSVL | WASTRES | QQYHRLPLS | no signal | 0/3
KSPQSVLYESANKNSVA | WASTGES | QQYHRLPLS | 980 nM | 1/3
KSSQSGLYESTNKNSVA | WASTRES | QHYHRLPLS | 6.0 nM | 3/3
KSSQSVFYESRNKNSVA | WASTREG | QQYHRHPLS | 31 nM | 3/3
KSSQSVLYESYLKNSVA | WASTRES | QQYIRLPLS | 50 nM | 3/3
KSSQSVLYESRNKESVA | WASTRES | QQNHRLPPS | 180 nM | 3/3
KSSQSVLYYSQNKNSVA | WASTRES | QQYHRLPLD | 20 nM | 3/3
KSSQSCLYESRKKNSVA | WAPTRES | QQYHRLPLS | 1.3 mM | 1/3
KSSQSVVYESRNKNSVA | WQSTRES | QQYHRLILS | 30 µM | 2/3
KTSQSELYECRNKNSVA | WASTRES | QQYHRLPLS | 1.9 µM | 1/3
KSSQSVLYESINKNSVA | WASTRES | QQYHMLPLA | no signal | 0/3
KSSQSILYESRNKNSVA | WASTRES | QQQHRNPLS | 9.4 µM | 1/3
ASWQSVLYESRNKQSVA | WASTRES | QQYHRLPLS | no signal | 0/3
KSSQSVLYESRNKNSVA | WASTREL | QQYHCLPLS | 4.4 nM | 3/3
KSSQSLLYESRNENSVA | WASTVES | QQYHRLPLS | 14 nM | 3/3
KSSQSVLYESRNKNSVA | WASTRES | CQYHRGPTS | 70 nM | 3/3
KSSQSWLYESRNKNSVA | WASTRES | LQYHRQPLS | 31 nM | 3/3